Measurements from patent US9233086B2 (THE REGENTS OF THE UNIVERSITY OF MICHIGAN, priority 2010, dated 2016).

The compounds below were run against WDR5 (Homo sapiens (Human), UniProt P61964) (assay: FP based competitive binding assay to WDR5). Conditions: 4 nM WDR5Δ23, 0.6 nM 10mer-Thr-FAM tracer; Ki calculated by equation of ref. 31; read-out: Ki ± SD.
Description: Another aspect of the invention is development of a Fluorescent Polarization (FP) based competitive binding assay. […] Next, the millipolarization (mP) values were measured at different time points in order to determine equilibrium duration and stability.
Accordingly, the optimal protein concentrations for the competitive assay was investigated.
All the FP based experiments were performed in MICROFLUOR® 2 Black, “U” Bottom, 96-well Microtiter Plates (ThermoSci.) and FP was measured as mP units in a microplate reader (Tecan Ultra) with excitation at 485 nm and emission at 530 nm. The Kd of the tracers and the IC50 value of the inhibitors were calculated using GraphPad Prism 4 software.
The binding affinities of the synthetic peptides shown in the study were measured using this competitive binding assay. A pre-incubated complex solution of WDR5Δ23 and the tracer in 120 μl assay buffer were added to dilutions of the test compound in 5 μl DMSO, giving final concentrations of WDR5Δ23 and the tracer of 4 nM and 0.6 nM, respectively. […] The plates were incubated with shaking at room temperature. The mP values were measured after five hours of incubation and Ki values were calculated using the equation described previously(31).
For `CC(C)C[C@H](NC(=O)[C@H](Cc1c[nH]cn1)NC(=O)[C@@H](NC(=O)[C@H](CCC(=O)O)NC(=O)[C@H](C)NC(=O)[C@H](CCCNC(=N)N)NC(=O)[C@H](C)NC(=O)[C@@H](N)CO)C(C)C)C(=O)N[C@@H](CCCNC(=N)N)C(=O)N[C@@H](CCCCN)C(=O)N[C@@H](CO)C(N)=O` [Compound H2N-11mer], the Ki was 0.02 ± 0.002 µM. In the case of `C[C@H](N)C(=O)N[C@@H](CCCNC(=N)N)C(=O)N[C@H](C(=O)N[C@@H](CCCCN(C)C)C(=O)N[C@@H](CCC(N)=O)C(=O)N[C@H](C(=O)N[C@@H](C)C(=O)N[C@@H](CCCNC(=N)N)C(=O)N[C@@H](CCCCN)C(=O)N[C@@H](CO)C(N)=O)[C@@H](C)O)[C@@H](C)O` [H3-10mer-K4Me2, H2N-ARTK(Me2)QTARKS-NH2, reference compound], the Ki is reported as 9 ± 1.3 µM.

Same assay, conditions: 4 nM WDR5Δ23, 0.6 nM 10mer-Thr-FAM tracer; read-out: IC50 ± SD
Work on `CC(C)C[C@H](NC(=O)[C@H](Cc1c[nH]cn1)NC(=O)[C@@H](NC(=O)[C@H](CCC(=O)O)NC(=O)[C@H](C)NC(=O)[C@H](CCCNC(=N)N)NC(=O)[C@H](C)NC(=O)[C@@H](N)CO)C(C)C)C(=O)N[C@@H](CCCNC(=N)N)C(=O)N[C@@H](CCCCN)C(=O)N[C@@H](CO)C(N)=O` [Compound H2N-11mer] yielded an IC50 of 0.08 ± 0.01 µM. Work on `CNCCCC[C@H](NC(=O)[C@@H](NC(=O)[C@H](CCCNC(=N)N)NC(=O)[C@H](C)N)[C@@H](C)O)C(=O)N[C@@H](CCC(N)=O)C(=O)N[C@H](C(=O)N[C@@H](C)C(=O)N[C@@H](CCCNC(=N)N)C(=O)N[C@@H](CCCCN)C(=O)N[C@@H](CO)C(N)=O)[C@@H](C)O` [H3-10mer-K4Me, H2N-ARTK(Me)QTARKS-NH2, reference compound] yielded an IC50 of 69 ± 7 µM.

Same assay, conditions: Table 5 peptidomimetics
With `CC(=O)NCC(=O)N[C@@H](CCCNC(=N)N)C(=O)N[C@@H](C)C(N)=O` [Compound 1A] the IC50 was over 10 µM.

Same assay, conditions: read-out: Binding Affinity to WDR5 (IC50 ± SD); Table 5 peptidomimetics
Work on `CC(=O)N[C@@H](Cc1c[nH]cn1)C(=O)N[C@@H](CCCNC(=N)N)C(=O)N[C@@H](C)C(N)=O` [Compound 1G] yielded an IC50 of under 10 µM. `CC(=O)N[C@H](C(=O)N[C@@H](CCCNC(=N)N)C(=O)N[C@H](C(N)=O)C(C)C)c1ccccc1` [Compound 4J] showed an IC50 of under 30 µM. Compound `CC(=O)N[C@@H](C)C(=O)N[C@@H](CCCNC(=N)N)C(=O)N[C@@H](Cc1ccccc1)C(N)=O` [Compound 3G] has an IC50 of over 10 µM. `CC(=O)N[C@H](C(=O)N[C@@H](CCCNC(=N)N)C(=O)N[C@H](C(N)=O)C1CCCC1)C(C)C` [Compound 5G] was tested, and the IC50 was over 10 µM. In the case of `CC(=O)N[C@@H](C)C(=O)N[C@@H](CCCNC(=N)N)C(=O)N[C@@H](CO)C(N)=O` [Compound 3H], the IC50 is reported as under 5 µM. In the case of `CC(=O)N[C@@H](C(=O)N[C@@H](CCCNC(=N)N)C(=O)N[C@H](C(N)=O)C(C)C)c1ccccc1` [Compound 4K], the IC50 is reported as over 10 µM. `CC(=O)N[C@@H](C)C(=O)N[C@@H](CCCNC(=N)N)C(=O)N[C@H](C(N)=O)C1CCCCC1` [Compound 3F] was tested, and the IC50 was over 10 µM. Work on `CC(=O)N[C@H](C(=O)N[C@@H](CCCNC(=N)N)C(=O)N[C@@H](C)C(N)=O)C(C)C` [Compound 1C] yielded an IC50 of under 1 µM. With `CC(=O)NC(C)(C)C(=O)N[C@@H](CCCNC(=N)N)C(=O)N[C@H](C(N)=O)C(C)C` [Compound 4E] the IC50 was under 1 µM. `CC(=O)N[C@@H](Cc1ccccc1)C(=O)N[C@@H](CCCNC(=N)N)C(=O)N[C@@H](C)C(N)=O` [Compound 1H] gave an IC50 of under 50 µM. With `CC(=O)N[C@H](C(=O)N[C@@H](CCCNC(=N)N)C(=O)N[C@H](C(N)=O)C(C)C)C1CCCC1` [Compound 4I] the IC50 was under 10 µM. `CC(=O)N[C@H](C(=O)N[C@@H](CCCNC(=N)N)C(=O)N[C@H](C(N)=O)C(C)(C)C)C(C)C` [Compound 5F] was tested, and the IC50 was over 10 µM. In the case of `CC(=O)N[C@@H](CC(C)C)C(=O)N[C@@H](CCCNC(=N)N)C(=O)N[C@@H](C)C(N)=O` [Compound 1E], the IC50 is reported as under 50 µM. In the case of `CC(=O)N[C@H](C(=O)N[C@@H](CCCNC(=N)N)C(=O)N[C@@H](C)C(N)=O)[C@@H](C)O` [Compound 1J], the IC50 is reported as under 30 µM. With `CCC(CC)(NC(C)=O)C(=O)N[C@@H](CCCNC(=N)N)C(=O)N[C@H](C(N)=O)C(C)C` [Compound 4F] the IC50 was under 1 µM. `CC(=O)N[C@@H](C)C(=O)N[C@@H](CCCNC(=N)N)C(=O)N[C@@H](CC(C)C)C(N)=O` [Compound 3E] was tested, and the IC50 was over 10 µM. With `CC(=O)N[C@H](C(=O)N[C@@H](CCCNC(=N)N)C(=O)N[C@H](C(N)=O)C(C)C)C(C)(C)C` [Compound 4G] the IC50 was under 5 µM. With `CC(=O)N[C@@H](C)C(=O)N[C@@H](CCCNC(=N)N)C(=O)N[C@H](C(N)=O)C(C)C` [Compound 3C] the IC50 was under 1 µM. Work on `CC[C@H](NC(C)=O)C(=O)N[C@@H](CCCNC(=N)N)C(=O)N[C@@H](C)C(N)=O` [Compound 1B] yielded an IC50 of under 1 µM. `CC(=O)N[C@@H](C)C(=O)N[C@@H](CCCNC(=N)N)C(=O)N[C@@H](CS)C(N)=O` [Compound 3D] showed an IC50 of under 1 µM. With `CCC[C@H](NC(C)=O)C(=O)N[C@@H](CCCNC(=N)N)C(=O)N[C@H](C(N)=O)C(C)C` [Compound 4H] the IC50 was under 1 µM. Work on `CC[C@H](NC(=O)[C@H](CCCNC(=N)N)NC(=O)[C@H](C)NC(C)=O)C(N)=O` [Compound 3B] yielded an IC50 of under 0.1 µM. In the case of `CC(=O)N[C@H](C(=O)N[C@@H](CCCNC(=N)N)C(=O)NC(C)(C)C(N)=O)C(C)C` [Compound 5E], the IC50 is reported as over 1 µM. `CC(=O)N[C@@H](CS)C(=O)N[C@@H](CCCNC(=N)N)C(=O)N[C@@H](C)C(N)=O` [Compound 1D] showed an IC50 of under 5 µM. `CC(=O)N[C@@H](C)C(=O)N[C@@H](CCCNC(N)=O)C(=O)N[C@@H](C)C(N)=O` [Compound 2D] gave an IC50 of over 1 µM. With `CC(=O)N[C@H](C(=O)N[C@@H](CCCNC(=N)N)C(=O)N[C@@H](C)C(N)=O)C1CCCCC1` [Compound 1F] the IC50 was under 50 µM. `CC(=O)N[C@@H](C)C(=O)N[C@@H](CCCNC(=N)N)C(=O)NCC(N)=O` [Compound 3A] was tested, and the IC50 was over 1 µM. Work on `CC(=O)N[C@@H](C)C(=O)N[C@@H](CCCNC(=N)N)C(=O)N[C@@H](CCC(=O)O)C(N)=O` [Compound 3J] yielded an IC50 of over 10 µM. With `CC(=O)N[C@@H](CO)C(=O)N[C@@H](CCCNC(=N)N)C(=O)N[C@@H](C)C(N)=O` [Compound 1I] the IC50 was under 30 µM.

Each compound was assayed against MLL1 core complex (MLL1, WDR5, RbBP5, Ash2L) (Homo sapiens (Human), UniProt P61964) (assay: Inhibition of histone methyltransferase activity of the MLL1 core complex). Conditions: 0.5 μM MLL complex, 50 μM H3 peptide substrate, 30 minutes.
Format: biochemical
For `CC(=O)NCC(=O)N[C@@H](CCCNC(=N)N)C(=O)N[C@@H](C)C(N)=O` [GRA], the IC50 was over 100 µM.
